Among the data in publication PMC6917776, “Discovery of a chemical probe for PRDM9” (Nature Communications, 2019) are koff values, retold here.

The assay addresses T1, Biotinylated PRDM9 (amino acids 195–415) (Homo sapiens, UniProt Q9NQV7).
T1 construct: Biotinylated PRDM9 (amino acids 195–415)
T1 sequence (Q9NQV7 195-415): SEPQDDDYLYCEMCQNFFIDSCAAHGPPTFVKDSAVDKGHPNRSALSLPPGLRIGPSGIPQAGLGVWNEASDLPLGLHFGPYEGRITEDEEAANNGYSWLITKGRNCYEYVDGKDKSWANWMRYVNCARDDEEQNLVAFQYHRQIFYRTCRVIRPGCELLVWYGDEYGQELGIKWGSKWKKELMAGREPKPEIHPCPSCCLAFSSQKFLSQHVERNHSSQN
As to the kind of experiment: Surface plasmon resonance (SPR) binding. The settings on record: in the presence of 350 µM SAM. As for the experimental part: Fig. 2 Orthogonal confirmation of MRK-740 binding to PRDM9. Binding affinity of MRK-740 was determined using SPR in the presence of 350 µM SAM (5xKm SAM, 70 ± 10 µM). a A representative sensorgram (solid green) is shown with the kinetic fit (black dots). […] Biotinylated PRDM9 (amino acids 195–415) was immobilized on the flow cell of a SA sensor chip in 1x HBS-EP buffer, yielding 5700 RU. Using the buffer with 0.5% DMSO, 350 µM SAM and single cycle kinetic with 60 s contact time and a dissociation time of 120 s at a flow rate of 75 µL/min. MRK-740 was tested at 1 µM as the highest concentration with dilution factor of 0.33 for five tested concentrations. c Binding and selectivity of MRK-740 against PRDM family members were tested by DSF as described in Methods. Only binding to PRDM9 and PRDM7 with ∆Tm of higher than 2 °C was observed. Mechanism of action of MRK-740 was also evaluated by determining the IC50 values (d) in the presence of fixed peptide (20 μM) and varying SAM concentrations as well as (e) fixed concentration of SAM (350 µM) and varying concentrations of peptide. […] All (c–e) experiments were performed in triplicate (n = 3) and data points are presented as average ± standard deviation. Source data are provided as a Source Data file.
Binding studies by SPR were performed using a Biacore T200 (GE Health Sciences Inc.) at 20 °C. […]
For orientation: In SPR one partner is held on a chip, and binding of the other changes the refractive index at the surface.

Broadly, the koff is the rate constant with which the complex falls apart. Consider `COc1cc(OC)cc(-c2noc(N3CCN(C)C4(CCN(c5ccnc(C)c5)CC4)C3)n2)c1` [MRK-740], for which the koff is 0.1 ± 0.01 s⁻¹.
